Results on 1 compound are retold here after ChEMBL document CHEMBL4431356, “Synthesis and activity of benzimidazole-1,3-dioxide inhibitors of separase” (Bioorg Med Chem Lett, 2016).

The chains behind the UniProt entries cited, without tags or fusion partners. Where a name states a change or a piece, a line headed by the entry shows the natural chain unless it says otherwise.
UniProt Q14674: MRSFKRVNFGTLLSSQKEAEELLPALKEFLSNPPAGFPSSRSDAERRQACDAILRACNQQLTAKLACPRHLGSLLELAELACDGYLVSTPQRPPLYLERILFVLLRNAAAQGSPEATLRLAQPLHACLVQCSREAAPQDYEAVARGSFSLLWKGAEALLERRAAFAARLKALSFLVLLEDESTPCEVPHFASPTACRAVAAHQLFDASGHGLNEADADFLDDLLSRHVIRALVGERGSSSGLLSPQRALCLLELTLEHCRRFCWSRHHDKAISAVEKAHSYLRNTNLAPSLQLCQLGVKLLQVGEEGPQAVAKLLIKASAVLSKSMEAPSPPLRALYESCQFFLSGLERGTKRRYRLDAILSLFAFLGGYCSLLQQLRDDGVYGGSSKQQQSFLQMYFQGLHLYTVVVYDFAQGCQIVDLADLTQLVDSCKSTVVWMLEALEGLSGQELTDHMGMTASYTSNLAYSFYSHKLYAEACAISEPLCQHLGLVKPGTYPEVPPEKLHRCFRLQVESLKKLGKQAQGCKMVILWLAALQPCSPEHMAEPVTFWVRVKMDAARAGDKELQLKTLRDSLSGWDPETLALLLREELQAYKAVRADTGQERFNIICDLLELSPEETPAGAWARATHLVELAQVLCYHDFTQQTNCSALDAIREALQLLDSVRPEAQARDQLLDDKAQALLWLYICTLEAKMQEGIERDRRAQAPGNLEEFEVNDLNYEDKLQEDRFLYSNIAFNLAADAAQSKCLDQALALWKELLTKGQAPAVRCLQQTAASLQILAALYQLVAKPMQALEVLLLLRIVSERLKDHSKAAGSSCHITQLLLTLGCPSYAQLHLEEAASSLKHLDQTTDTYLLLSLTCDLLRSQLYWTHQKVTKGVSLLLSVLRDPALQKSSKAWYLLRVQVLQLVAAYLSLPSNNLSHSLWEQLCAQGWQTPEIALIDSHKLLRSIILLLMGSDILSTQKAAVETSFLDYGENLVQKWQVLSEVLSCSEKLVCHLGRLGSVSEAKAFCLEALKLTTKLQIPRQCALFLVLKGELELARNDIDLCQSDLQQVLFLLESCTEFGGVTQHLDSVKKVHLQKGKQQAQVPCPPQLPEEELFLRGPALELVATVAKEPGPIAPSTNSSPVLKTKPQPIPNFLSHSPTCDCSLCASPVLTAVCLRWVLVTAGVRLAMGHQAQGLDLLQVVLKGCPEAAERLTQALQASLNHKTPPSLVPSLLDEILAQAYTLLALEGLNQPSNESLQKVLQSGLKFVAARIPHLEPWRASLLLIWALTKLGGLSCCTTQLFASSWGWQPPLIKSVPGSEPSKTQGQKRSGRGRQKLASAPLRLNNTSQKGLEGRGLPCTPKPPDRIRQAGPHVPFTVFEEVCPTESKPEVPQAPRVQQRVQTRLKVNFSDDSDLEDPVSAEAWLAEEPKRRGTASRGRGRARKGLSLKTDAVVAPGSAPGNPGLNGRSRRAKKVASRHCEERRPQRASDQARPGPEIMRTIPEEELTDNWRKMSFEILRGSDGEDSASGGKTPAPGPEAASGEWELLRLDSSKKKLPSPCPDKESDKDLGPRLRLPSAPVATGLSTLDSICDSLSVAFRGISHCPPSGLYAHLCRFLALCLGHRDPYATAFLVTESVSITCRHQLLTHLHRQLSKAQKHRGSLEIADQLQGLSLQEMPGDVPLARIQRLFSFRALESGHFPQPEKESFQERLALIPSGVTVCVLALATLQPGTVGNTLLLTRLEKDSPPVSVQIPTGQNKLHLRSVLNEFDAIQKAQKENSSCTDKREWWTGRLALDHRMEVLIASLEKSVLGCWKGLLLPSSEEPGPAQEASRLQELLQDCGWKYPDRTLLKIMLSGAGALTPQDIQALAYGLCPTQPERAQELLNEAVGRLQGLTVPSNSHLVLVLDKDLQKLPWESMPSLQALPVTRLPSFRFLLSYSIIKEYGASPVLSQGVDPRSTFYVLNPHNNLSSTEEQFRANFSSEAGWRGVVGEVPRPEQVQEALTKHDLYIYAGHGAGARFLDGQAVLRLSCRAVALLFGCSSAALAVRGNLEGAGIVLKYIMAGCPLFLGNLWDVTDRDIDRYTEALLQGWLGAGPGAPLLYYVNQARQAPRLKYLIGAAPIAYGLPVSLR

In this test the target is Separin (Homo sapiens, UniProt Q14674).

Where only a bound is given, the exact number is not on record here.

As to `O=[N+]([O-])c1ccc2no[n+]([O-])c2c1`, the half-maximal inhibitory concentration (IC50) was greater than 100 µM.

The term IC50 denotes the concentration needed to halve the response being measured. Low readings indicate inhibition by little substance, high ones a need for much substance.
